Tests used:
Format in all cases: cell-based
[1] = system: Molm-13 AML cell line; experiment: Combination protocol for proliferation in dose matrix (Alamar blue), Molm-13
Description: (§1) Combination Protocol for Proliferation in Dose Matrix
(§2) AML cell lines were seeded onto 96-well tissue culture plates in triplicates at a concentration of 1×10^4 cells/well. Cells were allowed to recover for 16-24 hours prior to adding SGI-110 at a range of concentrations (0.003-3 μM). Following 24 hr incubation with SGI-110, (2S,3S)-3-(4-chlorophenyl)-3-[(1R)-1-(4-chlorophenyl)-7-fluoro-5-[(1S)-1-hydroxy-1-(oxan-4-yl)propyl]-1-methoxy-3-oxo-2,3-dihydro-1H-isoindol-2-yl]-2-methylpropanoic acid was added at a range of concentrations (0.001-10 μM) and incubated for additional 48 hrs. At the end of compound treatment, 20 μl Alamar blue was added. After further 5-6 hr incubation at 37° C. the plates were read on a Spectramax Gemini reader (Molecular Devices; excitation 535 nm, emission 590 nm). Viability was calculated as percentage of DMSO vehicle control and synergy between various dose combinations of SGI-110 and (2S,3S)-3-(4-chlorophenyl)-3-[(1R)-1-(4-chlorophenyl)-7-fluoro-5-[(1S)-1-hydroxy-1-(oxan-4-yl)propyl]-1-methoxy-3-oxo-2,3-dihydro-1H-isoindol-2-yl]-2-methylpropanoic acid was identified based on the HAS Synergy Model.

[2] = system: ML-2 AML cell line; experiment: Combination protocol for proliferation in dose matrix (Alamar blue), ML-2
Description: as §1, §2

[3] = system: MV-4-11 AML cell line; experiment: Combination protocol for proliferation in dose matrix (Alamar blue), MV-4-11
Description: as §1, §2

[4] = SGI-110 0.003 μM + isoindolinone 0 μM
[5] = SGI-110 0.01 μM + isoindolinone 0 μM
[6] = SGI-110 0.03 μM + isoindolinone 0 μM
[7] = SGI-110 0.1 μM + isoindolinone 0 μM
[8] = SGI-110 0.3 μM + isoindolinone 0 μM
[9] = SGI-110 1 μM + isoindolinone 0 μM
[10] = SGI-110 3 μM + isoindolinone 0 μM

## Nc1ncn([C@H]2C[C@H](OP(=O)(O)OC[C@H]3O[C@@H](n4cnc5c(=O)[nH]c(N)nc54)C[C@@H]3O)[C@@H](CO)O2)c(=O)n1 [SGI-110, 2′-deoxy-5-azacytidylyl-(3′5′)-2′-deoxy-guanosine]
[1]; [4]
  Percentage viability relative to DMSO control: 96%
[1]; [5]
  Percentage viability relative to DMSO control: 84%
[1]; [6]
  Percentage viability relative to DMSO control: 72%
[1]; [7]
  Percentage viability relative to DMSO control: 53%
[1]; [8]
  Percentage viability relative to DMSO control: 39%
[1]; [9]
  Percentage viability relative to DMSO control: 31%
[1]; [10]
  Percentage viability relative to DMSO control: 22%
[2]; [4]
  Percentage viability relative to DMSO control: 94%
[2]; [5]
  Percentage viability relative to DMSO control: 92%
[2]; [6]
  Percentage viability relative to DMSO control: 87%
[2]; [7]
  Percentage viability relative to DMSO control: 78%
[2]; [8]
  Percentage viability relative to DMSO control: 74%
[2]; [9]
  Percentage viability relative to DMSO control: 61%
[2]; [10]
  Percentage viability relative to DMSO control: 45%
[3]; [4]
  Percentage viability relative to DMSO control: 92%
[3]; [5]
  Percentage viability relative to DMSO control: 89%
[3]; [6]
  Percentage viability relative to DMSO control: 89%
[3]; [7]
  Percentage viability relative to DMSO control: 83%
[3]; [8]
  Percentage viability relative to DMSO control: 76%
[3]; [9]
  Percentage viability relative to DMSO control: 60%
[3]; [10]
  Percentage viability relative to DMSO control: 50%

— patent US11236047B2 (ASTEX THERAPEUTICS LIMITED, priority 2017, dated 2022)
